Source: article PMC9101642 (Molecules, 2022)

System: MCF-7 cell lines
Test: MTT antiproliferative assay
Details: read-out: MCF-7 (IC50); virtually screened NCI hits, Table S17

O=C(O)c1ccccc1-n1c2ccccc2c2ccccc21 [Compound 10211]
IC50: 73.9 ± 11.4 µM
